Measured values reported in US20180009908.

Chains of the proteins cited; added tags and fusions are not shown. Chains listed by the source or under a name are the forms on record and can include a tag or linker.
mVEGFR1 D3-Fc protein (Myc-mVEGFR1 D3-Human IgG1 Fc), WT CH3, one chain, as listed by the source: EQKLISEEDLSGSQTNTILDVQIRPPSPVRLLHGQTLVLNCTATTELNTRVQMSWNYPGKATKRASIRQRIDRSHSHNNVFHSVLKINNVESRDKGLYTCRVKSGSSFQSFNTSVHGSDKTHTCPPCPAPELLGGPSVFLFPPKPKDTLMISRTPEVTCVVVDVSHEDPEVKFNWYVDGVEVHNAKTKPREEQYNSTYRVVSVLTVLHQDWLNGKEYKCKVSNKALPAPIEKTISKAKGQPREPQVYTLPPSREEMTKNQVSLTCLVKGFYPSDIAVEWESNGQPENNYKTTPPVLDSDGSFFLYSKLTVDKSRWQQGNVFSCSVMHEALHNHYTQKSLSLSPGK

Molecular target: mVEGFR1 D3-Fc protein (Myc-mVEGFR1 D3-Human IgG1 Fc), WT CH3
Experiment: TR-FRET with Eu/Cy5 Fabs on HEK293F supernatants; relative FRET, not quantitative (footnote d)

B1: hEGFR D3-Fc protein (Myc-EGFR D3-Human IgG1 Fc), WT CH3 (protein)
chain: EQKLISEEDLSGSEERKVCNGIGIGEFKDSLSINATNIKHFKNCTSISGDLHILPVAFRGDSFTHTPPLDPQELDILKTVKEITGFLLIQAWPENRTDLHAFENLEIIRGRTKQHGQFSLAVVSLNITSLGLRSLKEISDGDVIISGNKNLCYANTINWKKLFGTSGQKTKIISNRGENSCKATGQVCHALCSPEGCWGPEPRDCVSCRNVSRGRECVDKGS[human IgG1 Fc not given here]
With B1 the % heterodimer (FRET signal) was 58% and 56.6%.

Several values for one entry are separate records, joined by “and”; a condition that tells them apart may be missing. Equal values may be shown once.
